According to patent US20140335050A1, “METHODS, COMPOSITIONS, AND KITS FOR THE TREATMENT OF CANCER” (The General Hospital Corporation, priority 2011, published 2014):

B1: IFN-B (protein, UniProt P01574 22-187, looked up)
Interferon beta: MSYNLLGFLQRSSNFQCQKLLWQLNGRLEYCLKDRMNFDIPEEIKQLQQFQKEDAALTIYEMLQNIFAIFRQDSSSTGWNETIVENLLANVYHQINHLKTVLEEKLEKEDFTRGKLMSSLHLKRYYGRILHYLKAKEYSHCAWTIVRVEILRNFYFINRLTGYLRN

Legend:
Format in all cases: cell-based, human
MUX melanoma cell line = assay: Antibody staining and flow cytometry (intracellular Melan-A/MART-1, gp100, TRP-2; surface MHC Class I); conditions: three days, IFN-β 5000 Units/ml, 17-AEP 1 μg/ml, PU-H71 0.3 μg/ml, CCT018159 10 μg/ml
Method: (§1) Cells were fixed with 1% formaldehyde, permeabilized with 0.1% saponin, stained with monoclonal antibodies to melanocyte antigens. Antibodies were obtained with specificity for: MART-1 from Vector Labs (Burlingame, Calif.); gp100 HMB45 from DakoCytomation (Carpinteria, Calif.) and then visualized with goat anti-mouse FITC-conjugated secondary antibody from Invitrogen (Fredrick, Md.). The level of EGFP was determined by flow cytometry of unfixed cells that were washed and resuspended in 1×PBS.
(§2) Cells were plated at a density of 1×10^5 in 1 ml of medium in a 24-well plate and cultured for varying times as indicated in results. Typically, 3 days of culture in the presence of Hsp90 inhibitors was optimal for the functional studies performed. After incubation, cells were collected by trypsinization and then evaluated by flow cytometry.
(§3) Intracellular staining and flow cytometric analyses of cytoplasmic Melan-A/MART-1, and gp100 expression were performed as described previously. Cells were fixed with 1% formaldehyde, permeabilized with 0.1% saponin, stained with monoclonal antibodies to melanocyte antigens. Antibodies were obtained with specificity for: Melan-A/MART-1 from Vector Labs (Burlingame, Calif.); gp100/HMB45 from DakoCytomation (Carpinteria, Calif.) and then visualized with goat anti-mouse FITC-conjugated secondary antibody from Invitrogen (Frederick, Md.). The level of EGFP was determined by flow cytometry of unfixed cells washed and resuspended in 1×PBS. Surface staining of MHC Class I was carried out using the antibody W6/32 on cells harvested with Cell Stripper from MediaTech Inc. (Manassas, Va.) and carried out on ice.
(§4) Cell were seeded at 1×10^6 cells in a T25 flask with 10 ml of media for the 4 day IFN-beta pre-treatments. Cells were then harvested and plated in 24 well plate at 1×10^5 cells per well in 1 ml of media for 3 day treatments.
(§5) For surface staining of HLA Class I and II antigens, cells were harvested using CellStripper™ from Mediatech (Manassas, Va.). All staining steps were performed on ice. Following a first incubation with antibody to Class I (W6/32) or Class II (L243) for 30 minutes. Stained cells were washed twice with cold PBS and then stained with a goat anti-mouse FITC secondary antibody to allow for quantitative analysis by flow cytometry. For evaluation of cytoplasmic antigens, including Melan-A/MART-1 and gp100, cells were first fixed in paraformaldehyde and permeabilized with saponin as previously described. Staining for cytoplasmic antigens was carried out at room temperature (22° C.).

MU89 melanoma cell line = assay: Antibody staining and flow cytometry (intracellular Melan-A/MART-1, gp100, TRP-2; surface MHC Class I/II); conditions: MU89 cells; Table 20; single agent or simultaneous combination
Method: as §1, §2, §3, §4, §5

[1] = test system: U-118 MG glioma cell line; assay: Antibody staining and flow cytometry (intracellular gp100; surface MHC Class I/II); conditions: U118 cells; Table 20; single agent or simultaneous combination
Method: as §1, §2, §3, §4, §5

[2] = test system: HeLa cervical carcinoma cells; assay: Surface antibody staining and flow cytometry (MHC Class I/II); conditions: HeLa cells; Table 20; single agent or simultaneous combination
Method: as §3, §4, §5

[3] = test system: MCF-7 breast cancer cells; assay: as above; conditions: MCF-7 cells; Table 20; single agent or simultaneous combination
Method: as §3, §4, §5

U2-OS osteosarcoma cells = assay: as above; conditions: U2-OS cells; Table 20; single agent or simultaneous combination
Method: as §3, §4, §5

| Molecule | MHC Class I, geometric mean of surface staining (W6/32) (MUX melanoma cell line) | L243 (MHC Class II surface staining) (MU89 melanoma cell line) | W6/32 (MHC Class I surface staining) (MU89 melanoma cell line) | L243 (MHC Class II surface staining) [1] | W6/32 (MHC Class I surface staining) [1] | L243 (MHC Class II surface staining) [2] | W6/32 (MHC Class I surface staining) [2] | L243 (MHC Class II surface staining) [3] | W6/32 (MHC Class I surface staining) [3] | L243 (MHC Class II surface staining) (U2-OS osteosarcoma cells) | W6/32 (MHC Class I surface staining) (U2-OS osteosarcoma cells) |
| --- | --- | --- | --- | --- | --- | --- | --- | --- | --- | --- | --- |
| CO[C@H]1/C=C\C=C(/C)C(=O)NC2=CC(=O)C(NCCN3CCCC3)=C(C[C@@H](C)C[C@H](OC)[C@H](O)[C@@H](C)/C=C(\C)[C@@H]1OC(N)=O)C2=O [17-AEP] | 219 | – | – | – | – | – | – | – | – | – | – |
| B1 | – | 1.8 | 65.1 | 2.7 | 299.2 | 5.2 | 370.8 | 10.3 | 368.2 | 3.2 | 416.6 |
